Measured values reported in patent publication US20230014907A1, “INHIBITORS OF APOL1 AND METHODS OF USING SAME” (Vertex Pharmaceuticals Incorporated, priority 2020, published 2023).

Protein sequences, listed by entry. Tags and fused reporters are not part of them. Residues count along the entry.
UniProt O14791, 28-398 S342G/I384M limits assumed: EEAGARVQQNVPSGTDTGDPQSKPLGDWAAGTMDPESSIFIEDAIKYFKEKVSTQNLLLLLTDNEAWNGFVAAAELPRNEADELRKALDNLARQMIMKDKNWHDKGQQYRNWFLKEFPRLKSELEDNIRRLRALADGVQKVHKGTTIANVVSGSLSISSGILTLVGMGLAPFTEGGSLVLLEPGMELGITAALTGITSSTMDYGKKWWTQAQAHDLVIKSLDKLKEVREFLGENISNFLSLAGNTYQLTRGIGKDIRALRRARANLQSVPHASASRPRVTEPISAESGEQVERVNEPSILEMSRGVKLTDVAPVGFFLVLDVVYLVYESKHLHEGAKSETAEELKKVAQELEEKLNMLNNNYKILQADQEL

Target: G1 APOL1 (Homo sapiens, UniProt O14791, I384M/S342G)
Assay: Acute APOL1 Thallium Assay with Inducible Stable Clones of HEK 293 Cells
Details: read-out: Thallium Assay (IC50), HEK 293 inducible stable clones
Source text: Acute APOL1 Thallium Assay with Inducible Stable Clones of HEK 293 Cells
Apolipoprotein L1 (APOL1) proteins form potassium-permeable cation pores in the plasma membrane. APOL1 risk variants (G1 and G2) induce greater potassium flux than G0 in HEK293 cells. This assay exploits the permeability of thallium (Tl+) through ligand-gated potassium channels. The dye produces a bright fluorescent signal upon binding to Tl+ conducted through potassium channels. The intensity of the Tl+ signal is proportional to the number of potassium channels in the open state. Therefore, it provides a functional indication of the potassium channel activities. During the initial dye-loading step, the Tl+ indicator dye as an acetoxymethyl (AM) ester enters the cells through passive diffusion. […] The increase of fluorescence in the assay represents the influx of Tl+ into the cell specifically through the potassium channel (i.e. through APOL1 pores), providing a functional measurement of potassium channel/pore activity. […]
Preparation of Cell Assay Plates • Culture medium is removed from the x cm^2 T-flask by aspiration. • The cell monolayer is rinsed with PBS 1× at room temperature. […] Cell suspension is then transferred to a 50 mL Falcon polypropylene tube. • Cells are then counted using a BioRad TC10 cell counter and the required amount of cells are centrifuged at 1200 RPM for 5 minutes. […]

Question: O=C(CCc1c(-c2ccccc2)[nH]c2c(C3CC3)cccc12)NC1=CCNC1=O was tested. Which IC50 did it give?
Answer: > 1 µM
